The target in the assay is Enteropeptidase (Homo sapiens) (UniProt P98073). The assay is described as follows: Inhibition of human recombinant Enteropeptidase assessed as inhibition based on initial velocity using 5FAM-Abu-Gly-Asp -Asp-Asp -Lys-Ile-Val-Gly-Gly-Lys-(CPQ2)-Lys-Lys-NH2 as substrate by fluorescence based plate reader method. To be noted: TDE = time-dependent effect. In short, it runs like this:
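Human recombinant enzyme prepared as a 24 mU/mL solution in 50 mM tricine pH 8.0, 0.01% Tween 20, 10 mM CaCl2. Compound in DMSO/buffer mixed with 2.1 μM substrate solution; enzyme added to start the reaction at room temperature. Fluorescence (ex 485/em 535 nm) read at 6 min. Inhibition taken relative to no-compound and no-enzyme controls. IC50 with 95% CI.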

Chains of the proteins cited; added tags and fusions are not shown. Lines headed by an entry give the natural chain unless they say otherwise; changes in a name come on top.
UniProt P98073: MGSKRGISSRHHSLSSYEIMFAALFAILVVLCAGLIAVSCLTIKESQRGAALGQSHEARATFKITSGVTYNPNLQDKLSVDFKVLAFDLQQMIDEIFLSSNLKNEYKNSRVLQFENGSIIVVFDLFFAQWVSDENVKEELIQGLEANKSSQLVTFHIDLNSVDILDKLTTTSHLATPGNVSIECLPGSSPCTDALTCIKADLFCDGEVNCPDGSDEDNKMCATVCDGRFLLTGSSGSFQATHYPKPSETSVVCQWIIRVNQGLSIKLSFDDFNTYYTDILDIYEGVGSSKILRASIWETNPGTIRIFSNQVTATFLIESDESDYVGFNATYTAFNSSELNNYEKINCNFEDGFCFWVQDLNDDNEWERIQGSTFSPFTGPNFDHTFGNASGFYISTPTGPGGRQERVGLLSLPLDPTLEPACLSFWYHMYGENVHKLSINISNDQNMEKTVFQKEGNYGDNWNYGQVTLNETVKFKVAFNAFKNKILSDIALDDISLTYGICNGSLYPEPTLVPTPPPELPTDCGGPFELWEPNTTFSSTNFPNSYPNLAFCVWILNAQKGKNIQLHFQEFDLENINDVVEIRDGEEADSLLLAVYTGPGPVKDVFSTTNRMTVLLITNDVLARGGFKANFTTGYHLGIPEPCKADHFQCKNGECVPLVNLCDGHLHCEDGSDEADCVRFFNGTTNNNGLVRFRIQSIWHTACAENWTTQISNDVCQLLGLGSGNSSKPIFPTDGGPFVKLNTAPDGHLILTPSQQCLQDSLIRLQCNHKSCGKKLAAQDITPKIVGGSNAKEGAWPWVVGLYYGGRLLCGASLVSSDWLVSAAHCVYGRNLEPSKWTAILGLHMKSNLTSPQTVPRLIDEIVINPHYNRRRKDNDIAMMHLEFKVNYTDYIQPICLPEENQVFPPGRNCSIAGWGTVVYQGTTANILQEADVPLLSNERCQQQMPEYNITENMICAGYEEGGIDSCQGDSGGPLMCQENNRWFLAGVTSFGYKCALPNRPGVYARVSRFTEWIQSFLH

The structures appear in SMILES notation.

For `Cc1cc(OC(=O)c2ccc(NC(=N)N)cc2)no1`, the inhibition entry was “Tde”.
